The target of the assay is T1, A1 receptor (Rattus norvegicus, UniProt P25099).
T1 construct: Whole brain minus cerebellum and brainstem from male Long Evans rats; from tissue; host or cells: rat whole brain minus cerebellum and brainstem (membranes)
The experiment in a line: Adenosine Receptor Binding - A1 Receptor Affinity (RBA1), [3H]-CHA displacement. As to conditions: 1.0 nM [3H]-CHA, rat brain membranes, pH 7.7, 25° C., 1 h; read-out: RBA-1 IC50 (adenosine A1 receptor affinity). The procedure: Adenosine Receptor Binding--A1 Receptor Affinity (RBA1) […] Whole brain minus cerebellum and brainstem from male Long Evans rats (150-200 g) was homogenized in 30 volumes of ice-cold 0.05 M Tris-HCl buffer pH 7.7 using a Brinkman Polytron PT-10, (setting number 6 for 20 seconds) and centrifuged for ten minutes at 20,000 x g (Sorvall RC-2), 4° C. The supernatant was discarded, and the pellet was resuspended and centrifuged as before. The pellet was resuspended in 20 ml Tris-HC1 buffer containing two International Units/ml of adenosine deaminase (Sigma type III from calf intestinal mucosa), incubated at 37° C. for 30 minutes, then subsequently at 0° C. for ten minutes. […] The radio-labeled ligand retained on the filter was measured by liquid scintillation spectrophotometry after shaking the filters for one hour or longer on a mechanical shaker in 10 ml of Beckman Ready-Solv HP scintillation cocktail. […] The Scatchard plot was calculated by linear regression of the line obtained by plotting the amount of radioligand bound (pmoles/gram of tissue) versus [bound radioligand/free radioligand].Since the amount of radioligand bound was a small fraction of the total amount added, free radioligand was defined as the concentration (nM) of radioligand added to the incubation mixture. […] The maximal number of binding sites (Bmax) was calculated from the Scatchard plot.

The chains behind the UniProt entries cited, without tags or fusion partners.
UniProt P25099, whole entry: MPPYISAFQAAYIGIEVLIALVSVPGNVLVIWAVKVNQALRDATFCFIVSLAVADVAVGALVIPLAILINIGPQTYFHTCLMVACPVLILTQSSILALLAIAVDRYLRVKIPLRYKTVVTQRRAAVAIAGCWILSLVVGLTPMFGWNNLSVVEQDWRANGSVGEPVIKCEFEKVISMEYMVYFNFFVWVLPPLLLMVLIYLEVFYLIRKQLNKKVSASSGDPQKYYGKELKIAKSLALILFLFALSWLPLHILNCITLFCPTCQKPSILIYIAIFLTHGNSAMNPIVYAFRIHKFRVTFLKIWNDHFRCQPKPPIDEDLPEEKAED

Consider `OC[C@H]1O[C@@H](n2cnc3c(NCC4c5ccccc5-c5ccccc54)ncnc32)[C@H](O)[C@@H]1O` [Example 2], for which the half-maximal inhibitory concentration (IC50) (as a rule, the concentration needed to halve the response being measured) turned out to be 5.6 nM.

The values above are taken from patent publication US4593019A, “N^6 -tricyclic adenosines” (Warner-Lambert Company, priority 1984, dated 1986).
